In the library only some 16% were active in any assay of this set; here they are far more common.
miR-21 reporter – raises the signal of a miR-21 reporter; Potency, µM (doses to about 38.3 µM), inactives show top-dose reporter change, positive = more light; HeLa miR-21 FLuc reporter, luciferase, 48 h; AID 2288; 340,000 tested, under 10 active; active = well fitted rising curve with a large enough effect; inconclusive = small, poorly fitted or top-dose-only effect; inactive = no such curve, though single readings can be large or run the other way;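 further: % of control where 0% means no effect; miR-21 action dims this reporter so a rising signal means less miR-21 action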
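HeLa miR-21-FLuc reporter line, endogenous miR-21; 2000 cells/well in DMEM/10% FBS; compound titration up to ~40uM final, 48 h, 37 degree Celsius; luciferase detection reagent, 15 min lysis, CCD luminescence.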
TDP1 block – inhibitors of human tyrosyl-DNA phosphodiesterase TDP1 | 0.28% of 350,000 active | AID 485290 | Potency, µM (top dose mostly 130 µM), inactives show at the highest dose activity change, negative = inhibition, actives largely listed as inhibitors | recombinant TDP1, AlphaScreen DNA substrate cleavage | Q9NUW8; also: potency is read from the fitted curve at half-maximal effect; % is scaled to controls: 0 for no effect and ±100 for the full control effect; nearly all actives have a fitted effect of over 40% in size
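Steps: enzyme plus compound, 15 min RT; add biotin/phosphotyrosine-FITC oligonucleotide (15 nM final), react 5 min; add donor/acceptor beads (10 ug/ml final), 10 min; read AlphaScreen. Tdp1 at 1 nM final.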
TDP1 cell noCPT – qHTS for Inhibitors of human tyrosyl-DNA phosphodiesterase 1 (TDP1): qHTS in cells in absence of CPT; DT40 Tdp1-/- hTDP1 cells, no CPT, ATP luminescence, 48 h; 15% of 420,000 active; Potency, µM (doses to about 46.2 µM), without a hit: at the highest dose activity change, negative = growth inhibition, usual class: inhibitors; also: potency is read from the fitted curve at half-maximal effect; % is scaled to controls: 0 for no effect and ±100 for the full control effect; nearly all actives have a fitted effect of over 55% in size
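Chicken DT40 Tdp1-/- cells complemented with human TDP1, screened without camptothecin (DMSO vehicle only), 400 cells/well. Compounds pin-transferred, cells incubated at 37 °C for at least 48 hr. Growth read as ATP-dependent luminescence (CellTiter-Glo, 30 min at RT).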
uPA generation – inhibitors of cell surface uPA generation. cell surface uPA generation assay, qHTS. 0.31% of 330,000 active. Potency, µM (doses to about 38.3 µM), without a hit: at the top dose activity change, negative = inhibition, actives largely listed as inhibitors; active = well fitted inhibition curve with a large enough effect; inconclusive = small, poorly fitted or top-dose-only effect; inactive = no such curve, though single readings can be large or run the other way; tested in mouse RAW 264.7 cells; also: potency is read from the fitted curve at half-maximal effect; % is scaled to controls: 0 for no effect and ±100 for the full control effect; nearly all actives have a fitted effect of over 55% in size
TDP1 cell CPT – growth inhibition of DT40 Tdp1-/-;hTDP1 cells with camptothecin (screen for TDP1 inhibitors); chicken DT40 Tdp1-/-;hTDP1 cells + 20 nM CPT, ATP luminescence, 48 h; 12% of 420,000 active; Potency, µM (highest dose often 46.2 µM), for inactives: top-dose activity change, negative = growth inhibition, actives largely listed as inhibitors; AID 686979; also: potency is read from the fitted curve at half-maximal effect; % is scaled to controls: 0 for no effect and ±100 for the full control effect; nearly all actives have a fitted effect of over 55% in size
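Cell growth measured by CellTiter-Glo luminescence after a minimum 48 h, 37 C compound exposure with 20 nM CPT in Tdp1-knockout DT40 cells stably expressing hTDP1, seeded 400/well; qHTS titration format.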
Active calls of the source: *; ? = inconclusive; . = no result. Unless noted, calls follow the shape of the dose curve; as a rule, active = well fitted curve in the direction sought with a large enough effect; inconclusive = small, poorly fitted or top-dose-only effect, or another doubt; inactive = no such curve, though single readings can be large; an effect the other way counts as inactive or inconclusive.

Under each structure: miR-21 reporter | TDP1 block | TDP1 cell noCPT | uPA generation | TDP1 cell CPT
- COc1ccc(NC(=O)CSc2ccc3nc(-c4ccccc4)cn3n2)c(OC)c1
→ 13% | 8% | 9.2µM* | . | 12µM*
- O=C(NC1CCCC1)c1cc2nc(-c3ccccc3)cc(-c3ccccc3)n2n1
→ 3% | . | ? | 0% | ?
- COc1ccc(NC(=O)c2cc3nc(-c4ccccc4)cc(-c4ccccc4)n3n2)c(OC)c1
→ -6% | -5% | 10µM* | 0% | 11µM*
- COc1ccc(-c2cn3nc(SCC(=O)Nc4cccc(C)c4C)ccc3n2)cc1
→ -45% | 3% | ? | . | 15µM*
- O=C(CSc1ccc2nc(-c3ccccc3)cn2n1)Nc1cccc(F)c1
→ -49% | 5% | ? | . | ?
- CC(=O)c1ccc(O)c(CC=C(C)C)c1O
→ . | . | ? | 4% | -28%
- COc1ccc(S(=O)(=O)n2ccnc2)cc1C(C)(C)C
→ -8% | 7% | -7% | . | -4%
- c1ccc(Cn2cc(CN3CCCCO3)c(-c3ccc4c(c3)OCO4)n2)cc1
→ -1% | . | ? | -19% | -14%
- CCCNC(=O)NC(=O)CSc1nnc(C)n1N
→ 0% | 1% | 5% | 2% | -11%
- COc1ccc(-c2cn3nc(SCC(=O)Nc4cc(C)cc(C)c4)ccc3n2)cc1
→ -45% | 0% | 21µM* | . | ?

The final three entries of the section above come first, to join the parts:
Under each structure: miR-21 reporter | TDP1 block | TDP1 cell noCPT | uPA generation | TDP1 cell CPT
- c1ccc(Cn2cc(CN3CCCCO3)c(-c3ccc4c(c3)OCO4)n2)cc1
→ -1% | . | ? | -19% | -14%
- CCCNC(=O)NC(=O)CSc1nnc(C)n1N
→ 0% | 1% | 5% | 2% | -11%
- COc1ccc(-c2cn3nc(SCC(=O)Nc4cc(C)cc(C)c4)ccc3n2)cc1
→ -45% | 0% | 21µM* | . | ?
- O=C(CSc1nc2ccccc2c(=O)[nH]1)c1ccc(O)c(O)c1
→ -19% | -7% | -13% | -5% | -26%
- O=C(CSc1nc2ccccc2c(=O)[nH]1)c1ccc(O)cc1O
→ -7% | 2% | ? | 4% | 13µM*
- O=C(CSc1nc2ccccc2c(=O)[nH]1)c1cccs1
→ -31% | 8% | 16µM* | 4% | 8.2µM*
- Cc1cc(SCC(=O)NC2CC2)nc2ccccc12
→ . | 0% | -8% | -6% | 2%
- Cc1cc(SCC(=O)c2cccs2)nc2ccccc12
→ -46% | 5% | ? | -3% | 16µM*
- Cc1noc(C)c1C(=O)OC(C)C(=O)Nc1ccc([N+](=O)[O-])cc1C(F)(F)F (stereo not given)
→ . | . | 9% | . | -19%
- FC(F)Oc1ccc(NC(=S)NC23CC4CC(CC(C4)C2)C3)cc1
→ 25% | 1% | ? | 14% | ?
- CCOC(=S)SCC(=O)Nc1nc(-c2ccc(Br)cc2)cs1
→ 14% | -2% | 4.6µM* | -13% | 4.6µM*
- CCOC(=S)SCC(=O)Nc1nc(-c2ccccc2)cs1
→ 20% | 3% | 2.6µM* | -6% | 2.9µM*
- O=S(=O)(Nc1ccccc1)c1ccc(S(=O)(=O)N2CCCC2)cc1
→ . | 2% | -16% | 5% | ?
- COc1ccccc1Cc1c(-c2ccc(OC)c(OC)c2)nc2c3ccccc3ccn12
→ . | . | 23µM* | . | ?
- COc1ccc(-c2nc3c4ccccc4ccn3c2Cc2ccccc2)cc1OC
→ . | . | 16µM* | . | ?
- COc1ccc(-c2nc3c4ccccc4ccn3c2Cc2ccccc2C(F)(F)F)cc1OC
→ . | . | 16µM* | . | ?
- COc1ccccc1Cc1c(-c2ccc(OC)c(OC)c2)nc2c(Cl)cc(C(F)(F)F)cn12
→ . | . | -27% | . | -27%
- COc1ccccc1Cc1c(C(C)(C)C)nc2c3ccccc3ccn12
→ . | . | 2.6µM* | . | 3.3µM*
- O=C(Nc1ccc(Br)cc1Cl)c1cnn2c1NC(=C1CC1)C=C2C(F)F
→ . | . | -6% | . | -5%
- COc1ccccc1Cc1c(-c2ccc(C#N)cc2)nc2c3ccccc3ccn12
→ . | . | 21µM* | . | 21µM*
- COc1ccc(Cc2c(-c3ccccc3)nc3c4ccccc4ccn23)c(C)c1
→ . | . | 15µM* | . | ?
- COc1ccc(-c2nc3ccc(Cl)cn3c2Cc2ccccc2C(F)(F)F)cc1OC
→ . | . | 16µM* | . | 18µM*
- COc1ccc(-c2nc3ccc(Cl)cn3c2Cc2ccccc2)cc1OC
→ . | . | ? | . | -21%
- NC(=O)c1ccsc1NC(=O)COC(=O)c1ccc(Cl)c(N)c1
→ . | . | ? | -13% | ?
- O=c1[nH]c(-c2ccccc2)nc2sc(-c3ccccc3)cc12
→ -29% | 1% | 6.5µM* | -20% | 10µM*
- Cc1ccc(C)n1-n1c(C)nc2sc(-c3ccccc3)cc2c1=O
→ -14% | 10% | 15µM* | -5% | 18µM*
- CCNC(=O)C1CCCN(C(=O)c2cccc3ccccc23)CC1 (stereo not given)
→ . | . | -10% | . | -38%
- Cc1ccc(CSc2nc3c([nH]c4ccccc43)c(=O)n2C)cc1
→ 3% | -2% | ? | . | ?
- COC(=O)Nc1ccc(S(=O)(=O)N2CCCC(C(=O)N3CCC(C)CC3)C2)cc1 (stereo not given)
→ 2% | 2% | ? | -8% | ?
- Cc1ccc(N2C(=O)CC(Sc3nc4ccccc4o3)C2=O)cc1Cl (stereo not given)
→ ? | -3% | 3.3µM* | -1% | 4.1µM*
- CCCc1c(O)nc(SC2CC(=O)N(c3ccc(C)c(Cl)c3)C2=O)[nH]c1=O (stereo not given)
→ . | . | -20% | 0% | 2%
- O=C1C=CC(=Nc2ccc3c(c2)C(=O)c2ccccc2-3)O1
→ . | . | -15% | -4% | -5%
- O=C1C=CC(=Nc2ccc(F)cc2)O1
→ . | . | 4.6µM* | -11% | 2.3µM*
- N#Cc1cc(S(=O)(=O)c2ccc(Cl)cc2)c(N)[nH]c1=O
→ 6% | -6% | 2% | 19% | -1%
- CCN(CC)CCNC(=O)c1ccc(NC(=O)Cc2ccccc2F)cc1
→ 4% | 3% | -4% | -11% | 18%
- CCN(CC)CCNC(=O)c1ccc(NC(=O)c2ccccc2-c2ccc(C(F)(F)F)cc2)cc1
→ 4% | . | ? | 1% | 18µM*
- O=C(Cc1ccc(Cl)cc1)Nc1ccccc1C(=O)N1CCCCC1
→ -4% | 4% | -7% | 3% | 2%
- CO[C@@]12[C@@H]3N[C@@H]3CN1C1=C(C(=O)C(N)=C(C)C1=O)[C@@H]2COC(N)=O
→ . | . | 0.1µM* | -7% | 0.12µM*
- CO[C@@]12[C@H](COC(N)=O)C3=C(C(=O)C(C)=C(N)C3=O)N1C[C@@H]1N[C@@H]12
→ . | . | 0.73µM* | ? | 0.58µM*
- Cc1ccc([N+](=O)[O-])cc1NC(=O)CSc1n[nH]c(-c2cccnc2)n1
→ -1% | 11% | -11% | 2% | -21%
- CCc1ccccc1NC(=O)c1ccc2c(c1)CCCN2S(C)(=O)=O
→ -16% | -5% | -22% | . | -26%
- CCC[C@H]1COCCS(=O)(=O)N1Cc1ccccc1F
→ -1% | . | -13% | -7% | -23%
- CCc1noc(C)c1C(=O)OC(C)C(=O)c1c(C)[nH]c2ccccc12 (stereo not given)
→ . | 0% | ? | 0% | 16µM*
- Cc1[nH]c2ccccc2c1C(=O)C(C)OC(=O)c1ccc([N+](=O)[O-])o1 (stereo not given)
→ 8% | 9% | 16µM* | -9% | ?

Gathered by group: the compounds so far with bromine (two)
Under each structure: miR-21 reporter | TDP1 block | TDP1 cell noCPT | uPA generation | TDP1 cell CPT
- CCOC(=S)SCC(=O)Nc1nc(-c2ccc(Br)cc2)cs1
→ 14% | -2% | 4.6µM* | -13% | 4.6µM*
- O=C(Nc1ccc(Br)cc1Cl)c1cnn2c1NC(=C1CC1)C=C2C(F)F
→ . | . | -6% | . | -5%
